This is an account of results in patent US10172915B2, “Methods and compositions for activation of sirtuins with Annexin A1 peptides” (Duke University, priority 2013, dated 2019).

The subject of this assay is adult rat ventricular cardiomyocytes (ARVCs). Nature of the assay: Long-term culture of ARVCs with repeat 800 μM peptide (cytotoxicity, lifespan). Particulars: media and agents changed every 3 days.

Take Ac-Gln-Ala-Trp [ANXA1sp]: the “Time for which >50% of ARVCs keep rod-shape morphology” value is “more than 120 days”. The “Share of ARVCs that keep rod-shape morphology” value (for more than 120 days) was more than 50%.
